In PubChem BioAssay AID1987 (The Scripps Research Institute Molecular Screening Center, 2009):
The entries are a selection whose mix differs from that of the whole data set. Active and inactive are the calls of the source.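 The calls were made as follows: active = inhibition above the campaign's mean inhibition across all tested compounds plus 3 SD (cut at about 9.5% in these data); inactive = the rest.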

Sequences of proteins named here, by UniProt entry; tags and fusion partners are left off. A change or cut given only in a name is not applied to a line headed by its entry.
UniProt P53041: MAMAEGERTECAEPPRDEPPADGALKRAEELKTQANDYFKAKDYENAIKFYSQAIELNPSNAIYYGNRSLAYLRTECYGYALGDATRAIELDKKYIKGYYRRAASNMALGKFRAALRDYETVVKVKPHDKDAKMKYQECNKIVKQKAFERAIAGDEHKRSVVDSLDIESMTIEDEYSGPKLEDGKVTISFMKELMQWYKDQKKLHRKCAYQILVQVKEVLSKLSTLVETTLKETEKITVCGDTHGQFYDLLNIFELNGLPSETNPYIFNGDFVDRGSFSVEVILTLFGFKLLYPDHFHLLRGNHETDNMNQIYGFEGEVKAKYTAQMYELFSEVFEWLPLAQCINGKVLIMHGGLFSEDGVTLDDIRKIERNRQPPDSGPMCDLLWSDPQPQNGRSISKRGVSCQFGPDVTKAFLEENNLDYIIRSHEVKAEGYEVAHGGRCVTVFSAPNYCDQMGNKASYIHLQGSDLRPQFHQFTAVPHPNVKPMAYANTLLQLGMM

What follows are compounds tested against Serine/threonine-protein phosphatase 5 (Homo sapiens) (UniProt P53041) (assay: PP5 phosphatase inhibitors, primary screen, biochemical, fluorescence (AID 1987;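 also: 0% = DMSO only and 100% = 100 µM cantharidin control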)). Settings: purified PP5c, OMFP substrate fluorescence; at 6.7 µM; stronger effect = higher value.

SMILES	inhibition
CC(C)(C)C(=O)NC(Sc1ccccc1)C(Cl)(Cl)Cl (stereo unspecified)	inactive: -1.54%
CCOc1ccc(C2=NCC(CBr)S2)cc1 (stereo unspecified)	inactive: -0.93%
O=P1(Nc2nc3ccc(Cl)cc3s2)COc2ccccc2O1 (stereo unspecified)	inactive: -0.6%
CC(=O)Nc1ccc(Oc2c([N+](=O)[O-])cc([N+](=O)[O-])cc2[N+](=O)[O-])cc1	inactive: -0.57%
CC(=O)Nc1ccc([As](=O)(O)O)c(O)c1	inactive: 0.51%
C[C@H]1OP(=O)(Oc2ccccc2)C[C@@H]2O[C@@H]21 (stereo partly specified)	inactive: 1.67%
C[C@@H]1C=CCP(=O)(Oc2ccccc2)O1 (stereo partly specified)	inactive: 0.62%
Cc1ccccc1CN(C)C(=O)COC(=O)C(O)(c1ccccc1)c1ccccc1	inactive: 5.06%
CC(=O)c1ccc(N2CC2c2ccncc2)cc1 (stereo unspecified)	inactive: 1.22%
CCOC(=O)NC(Sc1ccccc1)C(Cl)(Cl)Cl (stereo unspecified)	inactive: 3.37%
Cc1ccc(NP(=O)(Oc2cccc(C)c2)Oc2cccc(C)c2)nc1	inactive: 3.12%
c1ccc(-c2nn[nH]n2)c(-c2nn[nH]n2)c1	inactive: 0.69%
CCNC(=S)/N=C(\N)N[N+](=O)[O-]	inactive: 0.31%
O=C(NC1CCS(=O)(=O)C1)NP(=S)(Oc1ccccc1)Oc1ccccc1 (stereo unspecified)	inactive: 1.15%
CN(C)C(=O)Oc1noc2ccccc12	inactive: -1.13%
Cc1ccccc1OP(=O)(Nc1ccccn1)Oc1ccccc1C	inactive: 5.56%
CCC(=O)N1C2C3N(C(=O)CC)C1C1N(C(=O)CC)C(C(N1C(=O)CC)N3C(=O)CC)N2C(=O)CC	inactive: -1.54%
O=C(OC1CN2CCC1CC2)c1ccccc1 (stereo unspecified)	inactive: 1.57%
Cc1ccc(OP(=O)(Nc2ccccn2)Oc2ccc(C)cc2)cc1	inactive: 3.85%
CC(=O)NC(SC(=S)N(CC(C)C)CC(C)C)C(Cl)(Cl)Cl (stereo unspecified)	inactive: 0.94%
COC(=O)c1cc2c(s1)N=C(c1ccccc1)N(C)P2(=O)N1CCOCC1 (stereo unspecified)	inactive: 2.6%
C[C@H]1OP(=O)(Oc2ccccc2)[C@H](O)[C@H](O)[C@H]1N=[N+]=[N-] (stereo partly specified)	inactive: 3.8%
O=P(Nc1nc2ccccc2s1)(c1ccccc1)c1ccccc1	inactive: -1.73%
O=P(Nc1ccccn1)(c1ccc(Br)cc1)c1ccc(Br)cc1	inactive: 0.53%
CN(C)C1(CNC(=O)c2ccc(Cl)c(S(N)(=O)=O)c2)CCCCC1	inactive: 0.51%
O=C(OC1CN2CCC1CC2)c1cccc(Cl)c1 (stereo unspecified)	inactive: 1.93%

SMILES	inhibition
C(Cc1nn[nH]n1)Cc1nn[nH]n1	inactive: 1.2%
Nc1ccc([As](=O)(O)c2ccc([N+](=O)[O-])cc2)cc1	inactive: -0.04%
O=[As](O)(c1ccccc1)c1ccc(O)cc1	inactive: -1.66%
O=[N+]([O-])c1ccc(O)c(/C=N/Nc2ccc([N+](=O)[O-])cc2[N+](=O)[O-])c1	inactive: 3.86%
O=[N+]([O-])c1ncn(CCn2cnc([N+](=O)[O-])n2)n1	inactive: -0.48%
CC(=O)NC(SC(=S)N(C)C)C(Cl)(Cl)Cl (stereo unspecified)	inactive: 0.11%
c1nnnn1CCn1cnnn1	inactive: 2.98%
CC(C)C(=O)NC(Sc1ccccc1)C(Cl)(Cl)Cl (stereo unspecified)	inactive: 3.61%
O=P(Nc1nccs1)(c1ccccc1)c1ccccc1	inactive: 0.41%
CCc1nc2c(n1)c1c(non1O)c1c2no[n+]1[O-]	inactive: 0.18%
O=[N+]([O-])c1cc([N+](=O)[O-])c(CCNc2ccccc2)c([N+](=O)[O-])c1	inactive: 1.74%
Cc1ccc(NP(=O)(Oc2ccccc2)Oc2ccccc2)nc1	inactive: -2.33%
O=[N+]([O-])c1cccc2n[nH]nc12	inactive: -0.67%
CC(=O)N1C2C3N(C(C)=O)C1C1N(C(C)=O)C(C(N1C(C)=O)N3C(C)=O)N2C(C)=O	inactive: -0.7%
COc1ccc(C2=NCC(CBr)S2)cc1 (stereo unspecified)	inactive: 0.18%
CC1CCN(C(=O)Oc2c(Cl)cc(Cl)c3cccnc23)CC1	inactive: 2.97%
CN(C)C(=O)OCCc1n(C)cc[n+]1C	inactive: -3.16%
CC(C)=N/N=C(\N)N[N+](=O)[O-]	inactive: -0.69%
CCN(/C(=N/P(=O)(N1CCOCC1)N1CCOCC1)N1CCOCC1)c1ccc(OC)cc1	inactive: 5.28%
C[N+]1=C2C=CC=CC=C2SC12C([N+](=O)[O-])=CC([N+](=O)[O-])=C[C-]2[N+](=O)[O-] (stereo unspecified)	inactive: 4.95%
Nc1ccc([As](=O)(O)c2ccc(N)cc2)cc1	inactive: -1.57%
O=C(Nc1cc([As](=O)(O)O)ccc1O)c1ccccc1	inactive: -0.02%
O=[N+]([O-])c1cccc(NC2=NCC(CBr)S2)c1 (stereo unspecified)	inactive: -1.04%
O=[N+]([O-])c1ncn(CCn2ncnc2[N+](=O)[O-])n1	inactive: -2.33%
CC(C)(C)C(=O)NC(Sc1ccncn1)C(Cl)(Cl)Cl (stereo unspecified)	inactive: 0.29%
Cc1ccc(NP(=O)(Oc2ccccc2F)Oc2ccccc2F)nc1	inactive: 0.8%

SMILES	inhibition
CN(C(=O)Cc1ccc(Cl)c(Cl)c1)[C@H]1CCCC[C@@H]1N1CCCC1	inactive: -0.14%
Cc1cc(SC(NC(=O)c2ccc(F)cc2)C(Cl)(Cl)Cl)ncn1 (stereo unspecified)	inactive: 0.48%
CCOP(=O)(Nc1ccccc1)OCC	inactive: 0.11%
O=P(Nc1nc2ccc(Cl)cc2s1)(c1ccccc1)c1ccccc1	inactive: 3.54%
CC(=O)Nc1ccc([As](=O)(O)O)cc1	inactive: 2.23%
O=C(O)c1ccccc1[As](=O)(O)O	inactive: 1.57%
O=[N+]([O-])c1cc([N+](=O)[O-])c(CCN2CCOCC2)c([N+](=O)[O-])c1	inactive: 0.18%
CN1CCCC(OC(=O)C(c2ccccc2)c2ccccc2)C1 (stereo unspecified)	inactive: -0.94%
Clc1ccc(Cl)c(NC2=NCC(CBr)S2)c1 (stereo unspecified)	inactive: 0.1%
Cc1ccc(OP(=O)(Nc2nccs2)Oc2ccc(C)cc2)cc1	inactive: -0.14%
COc1ccccc1OP(=O)(Nc1ccc(C)cn1)Oc1ccccc1OC	inactive: -0.96%
Cc1ccc(N/C(=N/P(=O)(N2CCOCC2)N2CCOCC2)N2CCOCC2)cc1	inactive: -0.35%
CN(C(=O)Cc1ccc(Cl)c(Cl)c1)[C@H]1CCCC[C@H]1N1CCCC1	active: 12.7%
NC(=O)c1cc([N+](=O)[O-])cc([N+](=O)[O-])c1N	inactive: -0.94%
O=C(NC(Sc1ccncn1)C(Cl)(Cl)Cl)c1ccccc1 (stereo unspecified)	inactive: -0.18%
Cc1c2non([O-])c-2c(C)[n+](=O)[n+]1[O-]	inactive: 1.27%
Oc1ccccc1CNc1ccccn1	inactive: -0.08%
Nc1cc(N)c2nonc2c1[N+](=O)[O-]	inactive: -0.59%
CC(C)CC(=O)NC(Sc1ccc(Cl)cc1)C(Cl)(Cl)Cl (stereo unspecified)	inactive: 3.85%
COc1cc(I)ccc1[As](=O)(O)O	inactive: -1.68%
COc1ccc2nc(NP(=O)(c3ccccc3)c3ccccc3)sc2c1	inactive: -0.37%
Cc1c2c(nc3ccccc13)SC(C(Cl)Cl)C2 (stereo unspecified)	inactive: -0.74%
Cc1cc(=O)[nH]c(N[N+](=O)[O-])n1	inactive: 0.15%
O=C(OC1CN2CCC1CC2)C12CC3CC(CC(C3)C1)C2 (stereo unspecified)	inactive: 3.21%
COc1ccc(N/C(=N/P(=O)(N2CCOCC2)N2CCOCC2)N2CCOCC2)cc1	inactive: -1.17%
Cc1ccc(OP(=O)(Nc2ccc([N+](=O)[O-])cn2)Oc2ccc(C)cc2)cc1	inactive: 0.45%

SMILES	inhibition
Cc1ccc2nc3c(c(C)c2c1)CC(C(Cl)Cl)S3 (stereo unspecified)	inactive: 3.64%
COc1cc(C(=O)NCC2(N3CCOCC3)CCCCC2)ccc1OCC(C)C	inactive: 2.73%
C[As](=O)(O)c1cccc(C(=O)O)c1	inactive: 2.35%
O=[As](O)(c1ccc(O)cc1)c1ccccc1O	inactive: 0.53%
O=[N+]([O-])c1cc([N+](=O)[O-])c(-c2ccn[nH]2)s1	inactive: 0.68%
CC(C)NC(=O)NP(=O)(Oc1ccccc1)Oc1ccccc1	inactive: -0.09%
CCN(CC)C(=S)SC(NC=O)C(Cl)(Cl)Cl (stereo unspecified)	inactive: -0.16%
ClCCSc1nnc(-c2cccnc2)o1	inactive: 1.13%
CC(C)c1ccc(OP(=O)(Nc2ccccn2)Oc2ccccc2F)cc1 (stereo unspecified)	inactive: 1.34%
Cc1cc(SC(NC(=O)c2ccccc2)C(Cl)(Cl)Cl)nc(C(C)C)n1 (stereo unspecified)	inactive: -0.3%
CCOC(=O)Nc1ccc([As](=O)(O)O)c(O)c1	inactive: 0.75%
O=P(Nc1ccccn1)(c1cccc2ccccc12)c1cccc2ccccc12	inactive: 1.72%
Cc1cc(SC(NC=O)C(Cl)(Cl)Cl)ncn1 (stereo unspecified)	inactive: 4.36%
CCOC(=O)Nc1cccc([As](=O)(O)O)c1	inactive: -1.05%
O=C(Nc1ccncc1[N+](=O)[O-])c1ccc([N+](=O)[O-])cc1[N+](=O)[O-]	inactive: 0.08%
O=C(COc1ccccc1)OC1CN2CCC1CC2 (stereo unspecified)	inactive: -1.75%
CCC(C)N(CC(C)C)C(=S)SC(NC(C)=O)C(Cl)(Cl)Cl (stereo unspecified)	inactive: -0.31%
O=C(OC1CN2CCC1CC2)c1cccc([N+](=O)[O-])c1 (stereo unspecified)	inactive: -0.71%
CCOC(=O)c1ccc(NC(=O)C(C)(CCl)SC)cc1 (stereo unspecified)	inactive: 1.6%
CC(C)(C)C(=O)NC(Sc1ncccn1)C(Cl)(Cl)Cl (stereo unspecified)	inactive: -2.44%
Clc1n[nH]nc1-c1nn[nH][15n]1	inactive: -1.96%
CCOP(=O)(NC(=NC(C)c1ccccc1)NC(C)c1ccccc1)OCC (stereo unspecified)	inactive: 1.2%
O=P1(Nc2ccccn2)COc2ccccc2OC1	inactive: 1.6%
